The assay concerns the target Intestinal-type alkaline phosphatase (Homo sapiens, UniProt P09923). The experiment in a line: human IAP enzyme inhibitors, dose response, biochemical, luminescence (AID 1017).

Protein sequences, listed by entry. Tags and fused reporters are not part of them. Lines headed by an entry give the natural chain unless they say otherwise; changes in a name come on top.
UniProt P09923: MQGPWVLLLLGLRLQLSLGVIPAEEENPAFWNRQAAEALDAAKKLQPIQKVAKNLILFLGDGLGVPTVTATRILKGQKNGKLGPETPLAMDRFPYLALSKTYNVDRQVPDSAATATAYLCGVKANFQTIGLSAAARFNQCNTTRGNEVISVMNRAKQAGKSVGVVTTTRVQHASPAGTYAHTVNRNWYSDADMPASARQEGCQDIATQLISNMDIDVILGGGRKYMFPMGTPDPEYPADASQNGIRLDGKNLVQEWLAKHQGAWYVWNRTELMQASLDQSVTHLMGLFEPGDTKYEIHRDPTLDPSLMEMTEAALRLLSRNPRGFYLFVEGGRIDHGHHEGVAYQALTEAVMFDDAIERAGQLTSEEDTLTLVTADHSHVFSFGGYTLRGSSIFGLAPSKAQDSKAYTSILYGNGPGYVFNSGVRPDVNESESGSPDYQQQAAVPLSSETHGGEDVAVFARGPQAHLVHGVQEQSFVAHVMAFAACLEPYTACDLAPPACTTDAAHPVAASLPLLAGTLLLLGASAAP

In general, IC50 refers to the concentration that inhibits the measured activity by half. Read a high IC50 as weaker potency in that assay. `O=C1c2ccccc2C(=O)N1c1nc(Cc2ccccc2)n[nH]1` [2-(5-benzyl-1H-1,2,4-triazol-3-yl)isoindole-1,3-dione] showed an IC50 of 8.86 µM.

The record behind these values is BindingDB's records for doi:10.7270/Q2JQ0ZDS (Sanford-Burnham Center for Chemical Genomics, 2009).
